Protein sequences, listed by entry. Tags and fused reporters are not part of them.
UniProt Q02563, whole entry: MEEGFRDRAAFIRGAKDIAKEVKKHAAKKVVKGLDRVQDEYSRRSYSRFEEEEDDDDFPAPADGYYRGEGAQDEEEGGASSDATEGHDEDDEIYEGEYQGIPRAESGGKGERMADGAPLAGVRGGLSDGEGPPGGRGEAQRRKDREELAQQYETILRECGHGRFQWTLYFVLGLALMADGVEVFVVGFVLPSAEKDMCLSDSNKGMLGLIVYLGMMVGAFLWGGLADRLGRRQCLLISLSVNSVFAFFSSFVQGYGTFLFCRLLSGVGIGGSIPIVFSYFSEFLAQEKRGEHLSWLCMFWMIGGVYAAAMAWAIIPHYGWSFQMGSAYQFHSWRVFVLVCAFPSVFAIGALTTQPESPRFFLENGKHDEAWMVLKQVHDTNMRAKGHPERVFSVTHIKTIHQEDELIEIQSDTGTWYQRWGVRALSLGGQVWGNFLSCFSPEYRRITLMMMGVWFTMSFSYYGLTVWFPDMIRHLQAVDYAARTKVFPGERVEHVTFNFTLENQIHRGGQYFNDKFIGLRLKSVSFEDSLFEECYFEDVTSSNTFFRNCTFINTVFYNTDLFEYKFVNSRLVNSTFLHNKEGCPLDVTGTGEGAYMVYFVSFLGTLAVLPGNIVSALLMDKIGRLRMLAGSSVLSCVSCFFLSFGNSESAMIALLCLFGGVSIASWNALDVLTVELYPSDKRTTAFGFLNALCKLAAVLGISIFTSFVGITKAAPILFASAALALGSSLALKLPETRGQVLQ

In paper PMC6538996, “Evaluating the In Vivo Specificity of [^18F]UCB-H for the SV2A Protein, Compared with SV2B and SV2C in Rats Using microPET” (Molecules, 2019):

Target: T1, [^18F]UCB-H binding in rat brain (Rattus norvegicus, UniProt Q02563)
T1 construct: from tissue; host or cells: brain of living Sprague Dawley rats (microPET)
Assay: microPET blocking assay of [18F]UCB-H (Vt, Logan plot, PBIF) after pre-treatment with competitors
Assay type: in vivo, Sprague Dawley rats
Conditions: i.p. pre-treatment 30 min before PET, SV2AL 10 mg/kg, SV2BL and SV2CL 3 mg/kg
Description: The competitors were prepared daily in a vehicle composed of distilled water containing 1% methyl cellulose (viscosity: 15 cP, Sigma-Aldrich, Overijse, Belgium) and 5% dimethyl sulphoxide (DMSO, Sigma-Aldrich, Belgium). The concentrations differed depending on the product specifications and their respective pharmacokinetics, provided by UCB Pharma s.a. The dosing used was 10 mg/kg for SV2AL, 3 mg/kg for SV2BL, and 3 mg/kg for SV2CL. All solutions were administered through the intraperitoneal (i.p.) route in a total volume of 1 mL per kg of body weight. The animals used as a control group (vehicle) received an equal volume of vehicle through the same route of administration.
The animals (n = 5 per group) were anesthetized using 4% isoflurane in air at a flow rate of 1 L/min during induction and 1.5% to 2% isoflurane in air at 0.6 L/min during maintenance. Respiration rate and rectal temperature were continuously measured using a physiological monitoring system (Minerve, France). The temperature was maintained at 37 ± 0.5 °C using an air warming system.
MicroPET scans were performed with a Siemens FOCUS 120 microPET (Siemens, Knoxville, TN, USA). The animals were anesthetized and pre-treated i.p. with vehicle, SV2AL, SV2BL, or SV2CL. Thirty minutes later, they were installed in the microPET scanner and [^18F]UCB-H was injected via the lateral tail vein (44.7 ± 3 MBq, 0.55 mL), simultaneously starting a 60 min emission scan, in list mode. Finally, a 10 min transmission scan was performed in a single event acquisition mode, using a ^57Co source. The acquired data were then reframed as follows: 6 × 5 s, 6 × 10 s, 3 × 20 s, 5 × 30 s, 5 × 60 s, 8 × 150 s, and 6 × 300 s. For each frame, a total of 95 trans-axial slices were obtained using Fourier rebining (FORE), followed by 2D ramp filtered backprojection (FBP), in 256 × 256 matrix. The slice thickness was 0.796 mm and the in-slice pixel size was 0.433 mm.
Immediately after the PET acquisition, the anesthetized rats were transferred into a 9.4 Tesla MRI horizontal bore system (Agilent Technologies, Palo Alto, CA, USA), with a 72 mm inner diameter volumetric coil (Rapid Biomedical GmbH, Würzurg, Germany). Anatomical T2-weighted brain images were obtained using a fast spin echo multi-slice sequence with the following parameters: TR = 2000 ms, TE = 40 ms, matrix = 256 × 256, FOV = 45 × 45 mm, 30 contiguous slices of thickness = 0.80 mm and in-plane voxel size = 0.176 × 0.176 mm.
PMOD software (Version 3.6, PMOD Technologies, Zurich, Switzerland) was used to process the imaging data. The structural MRI images were firstly co-registered to the corresponding PET images, and subsequently spatially normalized into the PMOD MRI T2 template. Finally, the inverse normalization parameters were calculated and applied to the PMOD rat brain atlas to bring it in the individual PET space.
Individual time-activity curves (TACs) were extracted for each ROIs and normalized by the body weight and the injected dose of radiotracer to be expressed as standardized uptake value (SUV). A population-based input function (PBIF) published by our laboratory was used to avoid arterial blood sampling during the acquisitions. The distribution volume (Vt), was determined by Logan plot kinetic modelling using the TACs and the PBIF. The equilibration time (t*) was fixed at 15 min (starting point of the range used in the multi-linear regression analysis).
The results are presented as mean (Vt) ± standard error of the mean (SEM). All the data were tested for normal distribution with Levene’s test for homogeneity, and with a Kolmogorov–Smirnov test for normality. Data were analyzed using one-way analysis of variance (ANOVA) followed by Scheffe post-hoc tests.

- percentage of reduction of [18F]UCB-H Vt vs vehicle, Caudate/Putamen (from mean Vt, n = 5): 46.2%
- percentage of reduction of [18F]UCB-H Vt vs vehicle, Cortex (from mean Vt, n = 5): 42.7%
- percentage of reduction of [18F]UCB-H Vt vs vehicle, Hippocampus (from mean Vt, n = 5): 46.8%
- percentage of reduction of [18F]UCB-H Vt vs vehicle, Inferior colliculus (from mean Vt, n = 5): 49.1%
- percentage of reduction of [18F]UCB-H Vt vs vehicle, Midbrain (from mean Vt, n = 5): 46.3%
- percentage of reduction of [18F]UCB-H Vt vs vehicle, Superior colliculus (from mean Vt, n = 5): 50.4%
- percentage of reduction of [18F]UCB-H Vt vs vehicle, Thalamus (from mean Vt, n = 5): 45.9%
- percentage of reduction of [18F]UCB-H Vt vs vehicle, Whole brain (from mean Vt, n = 5): 42.3%
- percentage of reduction of [18F]UCB-H Vt vs vehicle, Mean of the eight ROIs (mean of eight ROIs): 46.2%
Compound: CC[C@@H](C(N)=O)N1CCCC1=O [SV2AL, levetiracetam]
